# Test results as given in US7763582B2, “Localized insulin delivery for bone healing” (University of Medicine and Dentistry Of New Jersey, priority 2006, dated 2010).
# Details: non-diabetic BB Wistar, days 1 and 3 post-surgery, versus non-diabetic saline group; FIG. 1
substance,measurement,value
ultralente insulin,blood glucose levels,comparable
